Assay results as given in US6369225B1, “Compounds having activity as inhibitors of cytochrome P450RAI” (Allergan Sales, Inc., priority 2000, dated 2002).

Target: T1, P450RAI-1 (Homo sapiens, UniProt O43174)
T1 construct: expressed in transfected cells; host or cells: HeLa cells, stably transfected, hygromycin selection
T1 sequence (O43174 1-497): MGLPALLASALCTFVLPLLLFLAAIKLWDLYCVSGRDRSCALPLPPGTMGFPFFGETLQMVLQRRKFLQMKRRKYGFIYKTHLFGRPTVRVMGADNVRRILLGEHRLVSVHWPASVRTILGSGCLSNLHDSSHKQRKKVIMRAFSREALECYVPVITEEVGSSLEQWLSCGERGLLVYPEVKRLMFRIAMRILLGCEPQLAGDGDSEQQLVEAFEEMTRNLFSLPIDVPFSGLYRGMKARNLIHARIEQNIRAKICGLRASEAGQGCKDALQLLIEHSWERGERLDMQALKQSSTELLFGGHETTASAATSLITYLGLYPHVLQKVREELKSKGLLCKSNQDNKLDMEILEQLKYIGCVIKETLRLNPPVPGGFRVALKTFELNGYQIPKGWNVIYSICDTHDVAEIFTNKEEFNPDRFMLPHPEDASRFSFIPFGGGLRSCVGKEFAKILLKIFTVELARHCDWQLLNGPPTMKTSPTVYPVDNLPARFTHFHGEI
Experiment: P450RAI-1 cell-based inhibitor assay
Conditions: P450RAI-1 stably transfected HeLa cells, [3H]-RA metabolism, 3 hours at 37° C.; read-out: P450RAI INHIBITION DATA INTACT HELA IC50

CC(C)c1cc(C#Cc2ccc(CC(=O)O)cc2)ccc1Cn1ccnc1 [Compound 127, [4-(4-Imidazol-1-yl-methyl-3-isopropyl-phenylethynyl)-phenyl]-acetic Acid]
IC50: 400 nM
